Laboratory results published in patent EP0322747B1, “A brain neuron protecting agent containing a dihydropyridine compound” (priority 1987, dated 1989).

Tests used:
Experiment in all cases: Prophylactic effect on ischemic breakdown of cytoskeletal proteins, 5-minute brain ischemia-reperfusion model
Type in all cases: in vivo, gerbil
MAP-2 = test system: MAP-2; set-up: key to Effect on decrease in MAP-2: +: Statistically significant; -: Not effective
Method: (§1) A gerbil was immobilized in supine position and median section was performed in the cervical region under local anesthesia. Then, the bilateral common carotid arteries were stripped off carefully not to injure the vagus and sympathetic nerves running in parallel, . Then, each common carotid artery was obstructed with a small clip and after an interval of 5, 10 or 15 minutes, the clips were removed. The animal was decapitated immediately, 4 days or 1 week after the removal of the clips, and the brain was isolated. Untreated animals served as controls and animals undergoing sham operation (involving the stripping procedure only) were also investigated. The isolated brain was sectioned under ice-cooling into the frontal cortex (upper 2/3, approximately corresponding to the 1st to the 5th layer, ∼80 mg), striatum (∼20 mg) and hippocampus (∼50 mg) and each portion was homogenized in 4 times volume of (v/w) of 0.01 M phosphate buffer (pH 7.2). Each homogenate was centrifuged at 100,000 G for 30 minutes to obtain a supernatant. Equal parts of these supernatants were subjected to SDS-polyacrylamide gel (5%) electrophoresis and the proteins, namely MAP-2 (MW: 250-260K) calspectin (MW: 230-240K) and clathrin (MW: 180K), were quantified by measuring the absorbances at 560 nm with a densitometer (CS-930, Shimazu), and the proportion of each protein to the total water-soluble protein (exactly, the integral sum of the absorbance areas) was calculated. In addition, the relative percentage to the value of the untreated control group was also calculated.
(§2) Two series of experiments were carried out. […] One hour after the reperfusion, the animal was killed by decapitation and the brain was removed. […] One hour after the final administration (day 5), the animal was decapitated and the brain was isolated. The isolated brain was subjected to fractionation and electrophoresis as described above.

calspectin = test system: calspectin; set-up: key to Effect on decrease in Calspectin: +: Statistically significant; -: Not effective
Method: as §1, §2

clathrin = test system: clathrin; set-up: key to Effect on decrease in Clathrin: +: Statistically significant; -: Not effective
Method: as §1, §2

[1] = Cortex, 0.01 mg/kg s.c. 1 hour before ischemia, 1 hour after ischemia
[2] = Cortex, 0.1 mg/kg s.c. 1 hour before ischemia and once a day for 4 days, 4 days after ischemia
[3] = Cortex, 0.1 mg/kg s.c. 1 hour before ischemia, 1 hour after ischemia
[4] = Cortex, 1 mg/kg s.c. 1 hour before ischemia and once a day for 4 days, 4 days after ischemia
[5] = Cortex, 1 mg/kg s.c. 1 hour before ischemia, 1 hour after ischemia
[6] = Cortex, 10 mg/kg s.c. 1 hour before ischemia and once a day for 4 days, 4 days after ischemia
[7] = Frontal cortex, Left: dosed 1 hour before ischemia, killed 1 hour after ischemia
[8] = Frontal cortex, Right: dosed 1 hour before ischemia and for 4 subsequent days, killed 1 hour after the last dosing
[9] = Hippocampus, 0.01 mg/kg s.c. 1 hour before ischemia, 1 hour after ischemia
[10] = Hippocampus, 0.1 mg/kg s.c. 1 hour before ischemia and once a day for 4 days, 4 days after ischemia
[11] = Hippocampus, 0.1 mg/kg s.c. 1 hour before ischemia, 1 hour after ischemia
[12] = Hippocampus, 1 mg/kg s.c. 1 hour before ischemia and once a day for 4 days, 4 days after ischemia
[13] = Hippocampus, 1 mg/kg s.c. 1 hour before ischemia, 1 hour after ischemia
[14] = Hippocampus, 10 mg/kg s.c. 1 hour before ischemia and once a day for 4 days, 4 days after ischemia
[15] = Hippocampus, Left: dosed 1 hour before ischemia, killed 1 hour after ischemia
[16] = Hippocampus, Right: dosed 1 hour before ischemia and for 4 subsequent days, killed 1 hour after the last dosing
[17] = Striatum, 0.01 mg/kg s.c. 1 hour before ischemia, 1 hour after ischemia
[18] = Striatum, 0.1 mg/kg s.c. 1 hour before ischemia and once a day for 4 days, 4 days after ischemia
[19] = Striatum, 0.1 mg/kg s.c. 1 hour before ischemia, 1 hour after ischemia
[20] = Striatum, 1 mg/kg s.c. 1 hour before ischemia and once a day for 4 days, 4 days after ischemia
[21] = Striatum, 1 mg/kg s.c. 1 hour before ischemia, 1 hour after ischemia
[22] = Striatum, 10 mg/kg s.c. 1 hour before ischemia and once a day for 4 days, 4 days after ischemia
[23] = Striatum, Left: dosed 1 hour before ischemia, killed 1 hour after ischemia
[24] = Striatum, Right: dosed 1 hour before ischemia and for 4 subsequent days, killed 1 hour after the last dosing
[25] = sum of left and right (in brackets)

In the case of `COCCOC(=O)C1=C(C)NC(C)=C(C(=O)OC(C)C)C1c1cccc([N+](=O)[O-])c1` (centres unmarked) [Nimodipine, nimodipine], the MAP-2 protein concentration (MAP-2; [1]) is reported as 55.7± 7.8 % of normal value, the MAP-2 protein concentration (MAP-2; [2]) is reported as 46.2±12.0 % of normal value and the MAP-2 protein concentration (MAP-2; [3]) is reported as 61.8±10.6 % of normal value. The MAP-2 protein concentration (MAP-2; [4]) was 35.7±14.2 % of normal value, the MAP-2 protein concentration (MAP-2; [5]) was 65.3± 6.3 % of normal value and the MAP-2 protein concentration (MAP-2; [6]) was 41.6±16.5 % of normal value. For the same compound, the “Effect on decrease in MAP-2” value (MAP-2; [7]) was “-/-”, the “Effect on decrease in MAP-2” value (MAP-2; [8]) was “-/-” and the MAP-2 protein concentration (MAP-2; [9]) was 41.7± 2.6 % of normal value. The MAP-2 protein concentration (MAP-2; [10]) was 53.6± 5.2 % of normal value, the MAP-2 protein concentration (MAP-2; [11]) was 44.5± 5.4 % of normal value and the MAP-2 protein concentration (MAP-2; [12]) was 54.8± 9.4 % of normal value. The MAP-2 protein concentration (MAP-2; [13]) was 61.9± 9.9 % of normal value, the MAP-2 protein concentration (MAP-2; [14]) was 57.2±13.0 % of normal value and the “Effect on decrease in MAP-2” value (MAP-2; [15]) was “+”. For the same compound, the “Effect on decrease in MAP-2” value (MAP-2; [16]) was “-”, the MAP-2 protein concentration (MAP-2; [17]) was 54.5± 5.9 % of normal value and the MAP-2 protein concentration (MAP-2; [18]) was 37.2± 7.3 % of normal value. For the same compound, the MAP-2 protein concentration (MAP-2; [19]) was 53.9± 7.8 % of normal value, the MAP-2 protein concentration (MAP-2; [20]) was 65.2± 3.1 % of normal value and the MAP-2 protein concentration (MAP-2; [21]) was 56.8± 7.1 % of normal value. For the same compound, the MAP-2 protein concentration (MAP-2; [22]) was 67.8±10.2 % of normal value, the “Effect on decrease in MAP-2” value (MAP-2; [23]) was “+/+” and the “Effect on decrease in MAP-2” value (MAP-2; [24]) was “+/+”. The Calspectin protein concentration (calspectin; [1]) was 74.2± 8.5 % of normal value, the Calspectin protein concentration (calspectin; [2]) was 45.3± 8.9 % of normal value and the Calspectin protein concentration (calspectin; [3]) was 67.2±13.6 % of normal value. For the same compound, the Calspectin protein concentration (calspectin; [4]) was 45.6±15.1 % of normal value, the Calspectin protein concentration (calspectin; [5]) was 80.2± 6.0 % of normal value and the Calspectin protein concentration (calspectin; [6]) was 44.2±13.0 % of normal value. For the same compound, the “Effect on decrease in Calspectin” value (calspectin; [7]) was “-/-”, the “Effect on decrease in Calspectin” value (calspectin; [8]) was “-/-” and the Calspectin protein concentration (calspectin; [9]) was 58.9± 4.6 % of normal value. For the same compound, the Calspectin protein concentration (calspectin; [10]) was 69.3±11.2 % of normal value, the Calspectin protein concentration (calspectin; [11]) was 78.3±12.7 % of normal value and the Calspectin protein concentration (calspectin; [12]) was 62.6±14.5 % of normal value. For the same compound, the Calspectin protein concentration (calspectin; [13]) was 84.5±18.3 % of normal value, the Calspectin protein concentration (calspectin; [14]) was 69.5± 6.5 % of normal value and the “Effect on decrease in Calspectin” value (calspectin; [15]) was “-/-”. The “Effect on decrease in Calspectin” value (calspectin; [16]) was “-/-”, the Calspectin protein concentration (calspectin; [17]) was 51.8± 7.5 % of normal value and the Calspectin protein concentration (calspectin; [18]) was 46.6± 9.3 % of normal value. For the same compound, the Calspectin protein concentration (calspectin; [19]) was 67.6±12.2 % of normal value, the Calspectin protein concentration (calspectin; [20]) was 59.1± 4.6 % of normal value and the Calspectin protein concentration (calspectin; [21]) was 63.9±17.6 % of normal value. For the same compound, the Calspectin protein concentration (calspectin; [22]) was 58.9± 5.3 % of normal value, the “Effect on decrease in Calspectin” value (calspectin; [23]) was “-/-” and the “Effect on decrease in Calspectin” value (calspectin; [24]) was “-/-”. For the same compound, the “Total score, Calspectin” value (calspectin; [25]) was 0/0 (0), the “Effect on decrease in Clathrin” value (clathrin; [7]) was “-/-” and the “Effect on decrease in Clathrin” value (clathrin; [8]) was “-/-”. The “Effect on decrease in Clathrin” value (clathrin; [15]) was “-/-”, the “Effect on decrease in Clathrin” value (clathrin; [16]) was “-/-” and the “Effect on decrease in Clathrin” value (clathrin; [23]) was “-/-”. The “Effect on decrease in Clathrin” value (clathrin; [24]) was “-/-” and the “Total score, Clathrin” value (clathrin; [25]) was 0/0 (0).
